Results on 1 compound are retold here after patent US20120196933A1, “MEXILETINE PRODRUGS” (priority 2010, published 2012).

The nature of series [1]: Systemic availability of mexiletine in the cynomolgus monkey from mexiletine prodrugs (oral gavage). The following applies: 1 mg/kg mexiletine free base, plasma mexiletine. Type of series: in vivo. As to the method:
Test substances (i.e., mexiletine, and various mexiletine amino acid prodrugs) were administered by oral gavage to groups of two and, in one case, five male cynomolgus monkeys. Blood samples were taken at various times after administration and submitted to analysis for the parent drug using a validated LC-MS-MS assay. Pharmacokinetic parameters derived from the plasma bioanalytical data were determined using Win Nonlin.

The conditions of series [2]: in vivo; cited from earlier work.
Another series concerns patients. The following applies: especially at higher doses; cited from earlier work.
A short description of another series: in vivo. The following applies: rat, oral 5 mg mexiletine free base equivalents/kg; for Tmax: Tmax of mexiletine. On the procedure: Test substances (i.e., mexiletine & mexiletine glutamic acid amide) were administered by oral gavage to groups of five male Sprague Dawley rats.
Blood samples were taken at various times after administration and submitted to analysis for the prodrug and parent drug using a validated LC-MS-MS assay. Pharmacokinetic parameters derived from the plasma analytical were determined using Win Nonlin.

A short description of series [3]: Systemic availability of mexiletine in the dog from mexiletine prodrugs (oral gavage). As to conditions: 1 mg/kg mexiletine free base, plasma mexiletine. The format is in vivo. On the procedure: Test substances (i.e., mexiletine, and various mexiletine amino acid prodrugs) were administered by oral gavage to groups of two or some cases five dogs. The characteristics of the test animals are set out in Table 6.
Blood samples were taken at various times after administration and submitted to analysis for parent drug using a validated LC-MS-MS assay. Pharmacokinetic parameters derived from the plasma bioanalytical data were determined using Win Nonlin.

Where [4] appears, read: individual animals, hydrochloride.

“And” between values parts separate entries of the source, which are not always exact repeats. Equal values may be shown once. Marks after values point to notes of the source that are not given here.

As a reminder, the AUC is the area under the concentration-time curve, a measure of exposure. A word on the Cmax: it is the maximum level reached in the sampled fluid or tissue. As usually defined, the Tmax is the time at which the peak concentration occurs. As usually defined, the half-life is how long it takes for the measured level to halve. For the compound `Cc1cccc(C)c1OCC(C)N.Cl` (racemic) [Mexiletine hydrochloride, (rac)-1-(2,6-dimethylphenoxy)-2-propanamine hydrochloride], the “T50% Cmax” value in series [1] amounted to 3.94 h. Further, the Half life in series [2] is reported as 12 h. In addition, the “Patients with adverse GI events” value in the series with patients is given as “up to 38%”. Further, the exposure (AUC) in “in vivo” (male, Sprague Dawley, in vivo, po, 5 mg, AUC of mexiletine, mean, mean (values with extrapolated AUC > 25% omitted)) is 14.3 ng·h/mL. Besides, the Cmax in “in vivo” (male, Sprague Dawley, in vivo, po, 5 mg, Cmax of mexiletine, mean) was 7.29 ng/mL. The Tmax in “in vivo” (male, Sprague Dawley, in vivo, po, 5 mg, median, median value) came to 30 min. Moreover, in the series “in vivo” (male, Sprague Dawley, in vivo, po, 5 mg, individual animals), the Tmax worked out at 30 min. Further, the half-life in “in vivo” (male, Sprague Dawley, in vivo, po, 5 mg, t 1/2 of mexiletine, mean, ln2/mean k) was 72 min. In addition, in “in vivo” (setting [4]), the AUC of mexiletine is 15.9* ng · h/mL and 15.0 ng · h/mL and 24.0* ng · h/mL and 10.6 ng · h/mL and 17.4 ng · h/mL; the Cmax of mexiletine was 2.68 ng/mL and 7.33 ng/mL and 11.0 ng/mL and 5.26 ng/mL and 10.2 ng/mL; the “T>50% Cmax of mexiletine” value is 4.0 h and 1.5 h (2×) and 1.3 h and 1.2 h; the Tmax of mexiletine was 15 min. Further, in “in vivo” (setting [4]), the “t 1/2 of mexiletine” value is 4.3* h and 1.4* h and 1.1 h. For the same compound, the “T>50% Cmax of mexiletine, median” value in the series “in vivo” (median value, hydrochloride) is 1.5 h and 1.5^a h. In series [3], the “T50% Cmax” value is listed as 6.25 h.
